## Apparent affinities of Ab-14 variants for a coronavirus HR2 peptide

Data: MIT Lincoln Laboratory AlphaSeq set, Engelhart et al. 2022, doi:10.1038/s41597-022-01779-4, as distributed in FLAb.

The target is the same throughout: PDVDLGDISGINAS, from the HR2 region of SARS-CoV-2 spike.

The variants keep the heavy chain, the linker and the frameworks of Ab-14 (scFv order VH, three GGGGS repeats, VL).
VH: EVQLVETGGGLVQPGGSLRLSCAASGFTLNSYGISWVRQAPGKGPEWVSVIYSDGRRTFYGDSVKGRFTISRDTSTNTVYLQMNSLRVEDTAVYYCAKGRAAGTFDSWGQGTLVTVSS
VL: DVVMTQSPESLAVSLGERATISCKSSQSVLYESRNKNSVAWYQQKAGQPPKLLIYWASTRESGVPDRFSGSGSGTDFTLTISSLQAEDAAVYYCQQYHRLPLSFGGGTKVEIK

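Phage display of a naive human antibody library on the peptide gave the parent. Library AAYL50 holds single substitutions and randomly drawn double and triple substitutions in the CDRs. The scFvs were displayed on barcoded MATa yeast, the peptide on MATalpha yeast. Mating (16 h, 30 °C) was followed by selection of diploids and sequencing of their barcodes. Scores were corrected for input abundance and mapped to Kd with protein pairs of known affinity run in the same pool. There are three technical replicates.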

Each variant is given by its three light chain CDRs, as the data file delimits them; those of the parent are KSSQSVLYESRNKNSVA, WASTRES, QQYHRLPLS. Every variant below is changed at V39 of the VL (sequential numbering). Scale: log10 of Kd in nM, estimated from mating counts; low values are strong binders. Replicates are averaged; those with no signal do not enter the mean. A pair that was not seen in any replicate is written "nd"; this usually means weak binding, but a binder can also be missed. In this assay the parent's reference entry averaged 0.65; its copy inside this library read 1.68. Three control strains display no target. For library AAYL50, 18% of the pairings with them gave a signal, with a median of 4.19 and one signal in twenty below 2.99, so weak values seen in few replicates may be background.

The variant KSSQSVLYESRNKNSGA | TASTRES | QQYWRLPLS gave 4.90 (2 of 3 replicates).
The variant KSNQSVLYESRNKNSAA | WASTRES | CQYHRLPLS gave nd (0 of 3 replicates).
The variant KSSQSVLYESNNKNSQA | WASTRES | QRYHRLPLS gave nd (0 of 3 replicates).
The variant KSSQSVLYESRNKNSNA | WASTRES | QGYHRLPPS gave nd (0 of 3 replicates).
The variant KSSGSVLYYSRNKNSEA | WASTRES | QQYHRLPLS gave 4.28 (2 of 3 replicates).
The variant KSIQSVLRESRNKNSLA | WASTRES | QQYHRLPLS gave nd (0 of 3 replicates).
The variant KSSQSVLYESRNKNSGA | WWSTRES | QQYHRLPLS gave 4.96 (1 of 3 replicates).
The variant NSSQSVLYESRNKNSPA | WASTRES | QQYHRRPLS gave 4.39 (1 of 3 replicates).
The variant KSSQSVLYESRNKYSQA | WASTRES | QQYHRLPLM gave 3.69 (1 of 3 replicates).
The variant KSSQSVYYESRNKNSGA | WASTRES | QSYHRLPLS gave 4.58 (1 of 3 replicates).
The variant KSQQSVLYESRNKNSYA | WASTRES | QQYHRLPLS gave 4.20 (1 of 3 replicates).
The variant KSSQSVLAESRNKNSIA | WASERES | QQYHRLPLS gave nd (0 of 3 replicates).
The variant KSSQSVLYESRSKNSAA | WASTRES | QQYHHLPLS gave nd (0 of 3 replicates).
The variant KSSQSVLYESRNINSIA | WASTRES | QQYHRLPES gave nd (0 of 3 replicates).
The variant KSSQSVLYESRNKNSDA | WASWRES | QQYHRMPLS gave nd (0 of 3 replicates).
The variant KSSQSVLYEKRNKNSMA | WASTRES | QFYHRLPLS gave nd (0 of 3 replicates).
The variant AYSQSVLYESRNKNSQA | WASTRES | QQYHRLPLS gave 4.58 (2 of 3 replicates).
The variant KSSQSVLYESRNKNSRA | WASTREQ | QQYHRLPLS gave nd (0 of 3 replicates).
The variant KSSQSVLYESRNPNSQA | WAMTRES | QQYHRLPLS gave nd (0 of 3 replicates).
The variant KSSQSVLYRSRNKNSPA | WASTRES | QEYHRLPLS gave 5.00 (3 of 3 replicates).
The variant KSSQSVLYENRNFNSAA | WASTRES | QQYHRLPLS gave 3.43 (2 of 3 replicates).
The variant KSSQSGLYESRNKNSEA | WASTRES | QQYLRLPLS gave nd (0 of 3 replicates).
The variant KSSQSVLYESRNKNSMA | WASTIES | QQYHRLPLS gave 3.75 (3 of 3 replicates).
The variant KSSQSVLYLSRCKNSYA | WASTRES | QQYHRLPLS gave nd (0 of 3 replicates).
The variant KSSQSVLYESRNKNSEA | WASTRES | QQYHRLPQS gave 3.91 (1 of 3 replicates).
The variant KSSQSNLYESRNKNSRA | WASTQES | QQYHRLPLS gave nd (0 of 3 replicates).
The variant KSSQSVLYESRNKNSFA | WANTRES | QQYHRLPPS gave 4.10 (1 of 3 replicates).
The variant KSSQSVLHESRNKNSQA | WASTIES | QQYHRLPLS gave 4.09 (1 of 3 replicates).
The variant KSSQSVLYESRNKNSNA | WAVTRES | QQYHGLPLS gave 4.00 (1 of 3 replicates).
The variant KSMQSVLYESRNKNSKA | WASSRES | QQYHRLPLS gave 3.68 (1 of 3 replicates).
The variant KSSQSVLYESRNKNSQA | WLGTRES | QQYHRLPLS gave nd (0 of 3 replicates).
The variant PSSQSVLYESRNKNSNA | WASTRES | QQYDRLPLS gave 4.37 (1 of 3 replicates).
The variant KSSQSVLYESRNKNSYA | WASTRES | QQYHRYPLS gave 4.89 (1 of 3 replicates).
The variant KSSQSVLYESRRKNSQA | WASTRES | SQYHRLPLS gave 4.59 (1 of 3 replicates).
The variant KSSQSVLYESRNKNSPA | WYSTRES | QQYHRLGLS gave 3.22 (1 of 3 replicates).
The variant KSSQSVLYESRNKNSWA | WACTFES | QQYHRLPLS gave nd (0 of 3 replicates).
The variant KSSQSVLYESRNKNSEA | WASTRES | QQYHRRPMS gave nd (0 of 3 replicates).
The variant KSSQSVCYESRNKNSCA | WASTRES | QQYHRLPLN gave 2.56 (1 of 3 replicates).
The variant KSSQSVLYESRNKNSRA | WASTRKS | QTYHRLPLS gave nd (0 of 3 replicates).
The variant KSSQSVLYESRPKNSFA | WASTTES | QQYHRLPLS gave 4.24 (1 of 3 replicates).
The variant KSSQSVLYESRNKNSAA | WASTQES | QQYHREPLS gave 5.43 (2 of 3 replicates).

Excerpt, the first 3 entries:

CDR-L1	CDR-L2	CDR-L3	mean, log10 nM	seen in
KSSQSVLYESRNKNSGA	TASTRES	QQYWRLPLS	4.90	2/3
KSNQSVLYESRNKNSAA	WASTRES	CQYHRLPLS	nd	0/3
KSSQSVLYESNNKNSQA	WASTRES	QRYHRLPLS	nd	0/3